Among the data in patent US20240108738A1, “BICYCLIC PEPTIDE LIGANDS SPECIFIC FOR NK CELLS” (Bicycle Tx Limited, priority 2021, published 2024) are IC50 and Kd values, retold here.

Sequences of proteins named here, by UniProt entry; tags and fusion partners are left off. Residues count along the entry.
UniProt O76036, 22-304: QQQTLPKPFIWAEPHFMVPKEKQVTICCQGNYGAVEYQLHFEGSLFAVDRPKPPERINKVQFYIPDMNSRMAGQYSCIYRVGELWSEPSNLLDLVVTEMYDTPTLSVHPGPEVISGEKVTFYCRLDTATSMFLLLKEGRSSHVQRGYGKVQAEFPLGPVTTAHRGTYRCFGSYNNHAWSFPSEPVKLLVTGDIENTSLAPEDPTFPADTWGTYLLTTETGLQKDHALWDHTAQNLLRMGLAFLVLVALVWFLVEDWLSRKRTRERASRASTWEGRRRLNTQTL

For one assay, the system named is human CD16a V176 variant. Kind of assay: IgG competition assay (AlphaScreen), V variant. The assay is classed as binding. To be noted: N-terminally biotinylated CD16a V176 10 nM, mouse IgG2a acceptor beads.
The next assay concerns the target T1, Fc-tagged human NKp46 (Homo sapiens, UniProt O76036).
T1 construct: purchased ACROBiosystems NC1-H5257
Kind of assay: NKp46 SPR assay (Method 1 and/or Method 2). The assay is classed as binding. To be noted: Kd (nM), SPR Method 1 and/or Method 2, Table 3B. Here is the method:
SPR experiments were performed to determine ka (M^−1s^−1), kd (s^−1), KD (nM) values (where measurable) of various bicyclic peptides to immobilised NKp46.
For analysis of peptide binding to NKp46, a Biacore 3000 instrument was used with a Cytiva Streptavidin chip. Capture of the protein (recombinant human NKp46-Fc fusion biotinylated via Avi-tag) was carried out at 25° C. with HBS-N (10 mM HEPES, 0.15 M NaCl, pH 7.4) as the running buffer and biotinylated NKp46 was captured to a level of 400-800 RU using a dilution of protein to 0.2 μM in buffer. Buffer was then changed to PBS/0.05% Tween 20 and a dilution series of the peptides was prepared in this buffer with a final DMSO concentration of 0.5% with a top peptide concentration of 100 nM-5000 nM and 6 further 2 or 3-fold dilutions. The SPR analysis was run at 25° C. and a flow rate of 50 μl/min with 60 seconds association and 200-400 seconds dissociation time. Data were corrected for DMSO excluded volume effects. All data were double-referenced for blank injections and reference surface using standard processing procedures and data processing and kinetic fitting were performed using Scrubber software, version 2.0c (BioLogic Software). Data were fitted using simple 1:1 binding model allowing for mass transport effects where appropriate.
Peptides were tested against Fc-tagged human NKp46 (ACROBiosystems, cat no. NC1-H5257). […]
On the technique in general: SPR reads the build-up and loss of mass on a sensor chip optically.

By IC50 is commonly meant the concentration needed to halve the response being measured. Read a high IC50 as weaker potency in that assay. On to `C#CCCC(=O)NCCCC[C@H](NC(=O)[C@H](C)NC(=O)[C@@H]1CSCc2nc3nc(n2)CSC[C@H](NC(=O)[C@@H]2CCCN2C(=O)[C@H](CC(=O)O)NC(=O)[C@H](CCC(=O)O)NC(=O)[C@H](C(C)C)NC(=O)[C@H](CO)NC(=O)[C@H](Cc2c[nH]c4ccccc24)NC(=O)[C@H](CCCNC(=N)N)NC(=O)[C@@H](NC(=O)[C@H](C)N)CSC3)C(=O)NCC(=O)N[C@@H](C)C(=O)N[C@@H](Cc2c[nH]c3ccccc23)C(=O)N1)C(N)=O` [BCY13883, A-(SEQ ID NO: 61)-A-[K(PYA)]], for which the IC50 in the assay on human CD16a V176 variant amounted to 2540 nM. This lies in the single-digit micromolar range.

The Kd is the constant that tells how readily two partners part at equilibrium. Read a low Kd as a tighter complex. On to `CC[C@H](C)[C@@H]1NC(=O)[C@H](CCC(=O)O)NC(=O)[C@@H]2CCCN2C(=O)[C@H](Cc2c[nH]cn2)NC(=O)[C@H](CO)NC(=O)[C@H](CC(N)=O)NC(=O)[C@@H]2CCCN2C(=O)[C@@H]2CSCCC(=O)N3CN(CN(C3)C(=O)CCSC[C@@H](C(=O)N[C@@H](C)C(N)=O)NC1=O)C(=O)CCSC[C@H](NC(=O)[C@H](C)N)C(=O)N[C@@H](CC(C)C)C(=O)N[C@@H](CC(C)C)C(=O)N[C@@H](Cc1c[nH]cn1)C(=O)N[C@@H](CC(=O)O)C(=O)N[C@@H](Cc1c[nH]cn1)C(=O)N2` [BCY15105, A-(SEQ ID NO: 7)-A], for which, at Fc-tagged human NKp46, binding was characterised by a dissociation constant (Kd) of 3730 nM. This lies in the single-digit micromolar range.
